# Measured values published in US20220204611A1 (Amgen, published 2022).
# Changes are numbered by the printed parent chain.
# T1: cynomolgus TREM2 on transfected HEK293 cells (cynomolgus, UniProt A0A2K5UY34 49-260)
# T1 construct: also called Cyno TREM2
# T1 sequence: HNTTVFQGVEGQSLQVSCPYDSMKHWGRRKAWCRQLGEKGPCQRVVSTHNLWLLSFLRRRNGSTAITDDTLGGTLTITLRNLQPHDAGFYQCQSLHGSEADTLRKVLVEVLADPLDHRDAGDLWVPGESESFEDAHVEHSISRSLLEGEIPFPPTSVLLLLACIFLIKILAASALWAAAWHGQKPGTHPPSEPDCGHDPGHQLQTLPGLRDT
# T2: mouse TREM2 on cells (mouse, UniProt Q99NH8 19-227)
# T2 construct: whole, on cells
# T2 sequence (looked up): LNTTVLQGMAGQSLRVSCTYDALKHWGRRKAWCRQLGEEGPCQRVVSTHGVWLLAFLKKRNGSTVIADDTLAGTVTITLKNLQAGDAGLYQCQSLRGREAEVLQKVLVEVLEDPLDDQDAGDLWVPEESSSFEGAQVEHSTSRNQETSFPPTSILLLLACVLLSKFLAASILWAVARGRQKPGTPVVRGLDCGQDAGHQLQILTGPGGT
# T3: human TREM2 on cells (human, UniProt Q9NZC2 19-230)
# T3 sequence: T1 sequence with E10A, R60W, F89L, V125F, V157I, P193L, H201Y
# T4: recombinant soluble human TREM2 protein (human TREM2 ECD-FlagHis) (human, UniProt Q9NZC2 19-174)
# T4 sequence: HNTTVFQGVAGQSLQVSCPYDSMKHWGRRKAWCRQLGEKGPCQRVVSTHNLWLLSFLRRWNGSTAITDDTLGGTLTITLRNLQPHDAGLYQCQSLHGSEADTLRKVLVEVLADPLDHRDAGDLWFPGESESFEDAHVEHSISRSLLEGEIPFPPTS
# T5: recombinant soluble cynomolgus TREM2 protein (cynomolgus TREM2 extracellular domain coupled to a Flag/His tag) (cynomolgus, UniProt A0A2K5UY34 49-204)
# T5 construct: extracellular domain; also called Cyno TREM2
# T5 sequence: T4 sequence with A10E, W60R, L89F, F125V
# B1: 33B12 (antibody, V domains shown)
# VH: EVQLVESGGALVQPGGSLRLSCAASGFTFSSFGMSWVRQAPGKGLEWVSYISKSSFTIYYADSVKGRFTISRDNAKNSFYLQMNSLRDEDTAVYYCAREGGLTMVRGVSSYGLDVWGQGTTVTVSS
# VL: not shown
# notes: human IgG2 from hybridoma
# B2: 26C10 (antibody, human IgG2, V domains shown)
# VH: B1 VH with K53S, Y95F, A97V, L102I, L113M
# VL: SFELTQPPSVSVSPGQTASITCSGDKLGDKYVCWYQQKPGQSPMLVIYQDTKRPSGIPERFSGSNSGNTATLTISGTQAMDEADYYCQAWDSSTVVFGGGTKLTVL
# notes: human IgG2 from hybridoma
# B3: 4G10 (antibody, human IgG2, V domains shown)
# VH: EVQLVQSGAEVKKPGESLKISCKGSGYSFPSYWIAWVRQMPGKGLEWMGIIYPGDSDTRYSPSFQGQVTISADKSISTAFLKWSSLKASDTAMYFCARQGIEVTGTGGLDVWGQGTTVTVSS
# VL: DIQMTQSPSSLSASVGDRVTITCRASQGIRNDLGWYQQKPGNAPKRLIYAASSLPSGVPSRFSGSGSGPEFTLTISSLQPEDFATYYCLQHNSYPWTFGQGTKVEIT
# notes: human IgG2 from hybridoma
# B4: 5E3 (antibody, human IgG2, V domains shown)
# VH: QVQLVQSGAEVKKPGASVKVSCKASGYTFTGYYIHWVRQAPGLGLEWMGWINPYSGGTTSAQKFQGRVTMTRDTSISSAYMELSRLRSDDTAVYYCARDGGYLALYGTDVWGQGTTVTVSS
# VL: DIQMTQSPSSLSASVGDRVTITCRASQGISNYLAWFQQKPGKAPKSLIYAASSLQSGVPSKFSGSGSGTDFTLTISSLQPEDFATYYCQQYSTYPFTFGPGTKVDIK
# notes: human IgG2 from hybridoma
# How the values were obtained:
# [1] = biological target: T1, cynomolgus TREM2 on transfected HEK293 …; assay: FACS, transfected HEK293 cells
# mouse TREM2 on cells = biological target: T2, mouse TREM2 on cells; assay: FACS, transfected HEK293 cells
# human TREM2 on cells = biological target: T3, human TREM2 on cells; assay: cell-based or functional assay
# [2] = biological target: T4, recombinant soluble human TREM2 protein …; assay: Octet BLI binning; competitor: load Ab 33B12
# Description: (§1) Each of sixteen different anti-TREM2 antibodies produced from hybridomas were quantitated and loaded onto one of the anti-human Fc sensors at 5 μg/mL for 2 minutes (“Load Antibody”). The sensor was then blocked with 100 μg/mL of an irrelevant human IgG2 antibody for 5 minutes. […] Next, each of the sixteen different anti-TREM2 antibodies (“Sandwich Antibody”) was added to the sensor at 5 μg/mL and allowed to bind for 5 minutes. All assay buffers contained 10 mM Tris (pH 7.6), 0.1% Triton X-100, 150 mM NaCl, 1 mM CaCl₂, and 1 mg/mL BSA. The assay was conducted at 25° C. Experimental kinetic results were fit to a 1:1 binding model.
# (§2) However, if addition of the sandwich antibody produces a binding event, then the sandwich antibody binds to a different epitope on human TREM2 than the load antibody and the two antibodies are categorized into different epitope bins.
# [3] = biological target: T6, human TREM1 on a cell line stably expressing human TREM1/DAP12 (human, UniProt Q9NP99 21-234); assay: FACS on cell line stably expressing human TREM1/DAP12
# T6 construct: signal peptide 1-20 left out
# [4] = biological target: T6, human TREM1 on a cell line stably …; assay: FACS, human TREM1/DAP12 cell line
# [5] = biological target: T4, recombinant soluble human TREM2 protein …; assay: Octet BLI binning; competitor: load Ab 26A10
# Description: as §1, §2
# [6] = biological target: T5, recombinant soluble cynomolgus TREM2 …; assay: Octet BLI, antibody on anti-human Fc sensor, 25 C
# Description: (§3) To quantitate the binding affinity of agonist antibodies for human TREM2, association and dissociation rate constants as well as the equilibrium dissociation constant were determined using anti-human Fc (Kinetic) sensors on an Octet® HTX instrument (Pall ForteBio). Agonist anti-TREM2 antibodies were made up in DMEM null media, 250 μL at 10 μg/mL. The, 250 uL of assay buffer (10 mM Tris (pH 7.6), 0.1% Triton X-100, 150 mM NaCl, 1mM CaCl₂, and 1 mg/mL BSA) was added to the antibody solutions to a final volume of 500 μL and final antibody concentration of 5 μg/mL. The anti-human Fc sensor was pre-incubated in 200 μL of the assay buffer for a minimum of 10 minutes. The sensor was then regenerated for 5 seconds in 10 mM glycine pH 1.5. Test agonist anti-TREM2 antibodies were loaded onto the sensor for 2 minutes, and baseline measurements were taken for 2 minutes. […] The recombinant TREM2 proteins were allowed to associate with the antibody-loaded sensor for 10 minutes, and then dissociation was measured for 10 minutes. The assay was conducted at 25° C. Experimental kinetic results were globally fit to a 1:1 binding model in order to determine the association and dissociation rate constants as well as the equilibrium dissociation constant.
# [7] = biological target: T4, recombinant soluble human TREM2 protein …; assay: Octet BLI, antibody on anti-human Fc sensor, 25 C
# Description: as §3
Binder,GM fold over irrelevant control antibody [1] [fold],GM fold over irrelevant control antibody (mouse TREM2 on cells) [fold],pSyk fold over control (human TREM2 on cells) [fold],sandwich binding signal [2],binding result [3],GM fold over irrelevant control antibody [4] [fold],sandwich binding signal [5],koff [6] [s⁻¹],kon [6] [M⁻¹ s⁻¹],koff [7] [s⁻¹],kon [7] [M⁻¹ s⁻¹]
B1,21.7,1,6,-0.014,–,–,–,–,–,–,–
B2,46,0.9,4.8,–,no binding,1.7,-0.017,–,–,–,–
B3,96.3,4.1,11.7,–,no binding,1.2,–,0.00096,560000,0.00098,300000
B4,89.6,2.6,8.02,–,no binding,1.1,–,0.0011,700000,0.00053,250000
